From patent US8461178B2, “Naphthyridine derivatives and the use thereof as kinase inhibitors” (Aeterna Zentaris GmbH, priority 2009, dated 2013)

Protein sequences, listed by entry. Tags and fused reporters are not part of them. Residues count along the entry.
UniProt P28482, whole entry: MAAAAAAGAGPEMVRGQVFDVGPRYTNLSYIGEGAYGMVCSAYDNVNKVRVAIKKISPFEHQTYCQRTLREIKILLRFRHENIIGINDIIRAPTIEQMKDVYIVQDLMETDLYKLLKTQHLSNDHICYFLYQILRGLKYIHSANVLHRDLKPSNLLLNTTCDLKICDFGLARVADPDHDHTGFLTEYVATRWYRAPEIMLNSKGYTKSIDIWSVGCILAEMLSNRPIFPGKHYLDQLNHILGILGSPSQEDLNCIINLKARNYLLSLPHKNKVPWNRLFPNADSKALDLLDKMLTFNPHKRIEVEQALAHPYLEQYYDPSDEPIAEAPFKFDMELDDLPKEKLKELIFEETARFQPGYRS
UniProt P28482, 2-360: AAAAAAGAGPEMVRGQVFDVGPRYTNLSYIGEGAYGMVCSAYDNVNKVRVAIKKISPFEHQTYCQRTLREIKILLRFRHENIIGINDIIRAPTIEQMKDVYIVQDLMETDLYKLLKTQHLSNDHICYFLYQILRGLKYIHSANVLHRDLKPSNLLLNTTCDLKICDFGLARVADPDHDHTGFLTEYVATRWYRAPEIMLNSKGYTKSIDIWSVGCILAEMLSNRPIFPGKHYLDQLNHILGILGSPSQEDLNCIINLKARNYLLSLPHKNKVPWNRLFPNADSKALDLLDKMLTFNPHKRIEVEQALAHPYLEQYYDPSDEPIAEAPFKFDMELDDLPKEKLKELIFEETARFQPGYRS
UniProt Q96GD4, whole entry: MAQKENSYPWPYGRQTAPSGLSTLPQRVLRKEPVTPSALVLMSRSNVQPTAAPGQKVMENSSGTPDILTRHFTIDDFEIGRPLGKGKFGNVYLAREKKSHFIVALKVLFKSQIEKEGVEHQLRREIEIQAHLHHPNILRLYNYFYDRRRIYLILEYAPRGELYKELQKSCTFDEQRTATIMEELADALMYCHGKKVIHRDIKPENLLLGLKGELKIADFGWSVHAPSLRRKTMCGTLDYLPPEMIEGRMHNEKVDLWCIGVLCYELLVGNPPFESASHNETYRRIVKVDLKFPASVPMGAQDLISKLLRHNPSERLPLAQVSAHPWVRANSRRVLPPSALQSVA

Experiments:
[1] = target: T1, Erk2 (Homo sapiens, UniProt P28482); assay: Cell-free kinase assay (ALPHA technology), Erk2; format: biochemical; conditions: at 10 μM ATP
T1 construct: in some cases as full-length kinases, in some cases as truncated fragments
Experimental: Recombinant human kinases, for example Aurora-B, cRaf-Mek1-Erk2, Erk2, Pim-1, HIPK1, KDR, TrkA, Yes, c-Abl and others were used, in some cases as full-length kinases, in some cases as truncated fragments—but at least consisting of the functional kinase domains.
(§1) The controls were determined 16 fold. 0% controls contained no ATP whereas the 100% controls contained no test substance. The IC50 values were determined with GraphPadPrism.

[2] = target: cRaf-Mek1-Erk2 (Homo sapiens, UniProt P04049+P28482+Q02750); conditions: read-out: IC50 cRaf-Mek-Erk; at 10 μM ATP
Experimental: The inhibitory effect of the inventive compounds was tested on various human serine/threonine kinases and tyrosine kinases in enzymatic assays. Recombinant human kinases, for example Aurora-B, cRaf-Mek1-Erk2, Erk2, Pim-1, HIPK1, KDR, TrkA, Yes, c-Abl and others were used, in some cases as full-length kinases, in some cases as truncated fragments—but at least consisting of the functional kinase domains. The commercial kinase proteins (Proqinase, Millipore) were used as recombinant fusion proteins with GST (glutathione S-transferase) tag or His tag. Depending on the substrate type, the different kinase reactions were quantified by suitable ALPHA™ beads (PerkinElmer).
The calculation of % inhibition values per substance concentration was done by means of the following formula from the raw data determined in the Envision reader:
as §1

[3] = target: T2, Aurora-B (Homo sapiens, UniProt Q96GD4); assay: Cell-free kinase assay (ALPHA technology), Aurora-B; format: biochemical; conditions: Aurora-B versus the other kinases, in words
T2 construct: in some cases as full-length kinases, in some cases as truncated fragments; purchased Upstate/Millipore #14-835
Experimental: Aurora-B assay: […] The kinase reaction was stopped by adding 10 μl of the ALPHA bead mix (10 μg/ml, #6760617/PerkinElmer), pre-incubated with anti-phospho PLK antibody (100 pM, #5070, Cell Signaling), in 25 mM Tris, 200 mM NaCl, 100 mM EDTA and 0.3% BSA, and left to stand overnight. The luminiscence was detected the next morning in a Envision instrument (Perkin Elmer). […] 0% controls contained no ATP whereas the 100% controls contained no test substance. The IC50 values were determined with GraphPadPrism.

IC50 [1] [nM] | IC50 [2] [nM] | selectivity against the other kinases [3] | SMILES
1130 | 1550 |  | CCNC(=O)Nc1ccc2ncc(-c3ccc(OC)cc3)cc2n1 [Compound 1, 1-Ethyl-3-[7-(4-methoxy-phenyl)-[1,5]naphthyridin-2-yl]urea]
742 | 621 |  | CCNC(=O)Nc1ccc2ncc(-c3ccc(OC)c(OC)c3)cc2n1 [Compound 2, 1-[7-(3,4-Dimethoxy-phenyl)-[1,5]naphthyridin-2-yl]-3-ethyl-urea]
702 | 339 |  | COc1cc(-c2cnc3ccc(NC(=O)NC(C)(C)C)nc3c2)ccc1O [Compound 4, 1-tert-Butyl-3-[7-(4-hydroxy-3-methoxy-phenyl)-[1,5]naphthyridin-2-yl]-urea]
 |  | high selectivity | CCNC(=O)Nc1ccnc2cc(-c3cnn(C)c3)cnc12 [Compound 10, 1-Ethyl-3-[7-(1-methyl-1H-pyrazol-4-yl)-[1,5]naphthyridin-4-yl]-urea]
 |  | high selectivity | Cn1cc(-c2cnc3c(NC(=O)NC4CCC4)ccnc3c2)cn1 [Compound 17, 1-Cyclobutyl-3-[7-(1-methyl-1H-pyrazol-4-yl)-[1,5]naphthyridin-4-yl]-urea]
 |  | high selectivity | Cn1cc(-c2cnc3c(NC(=O)NC4CC4)ccnc3c2)cn1 [Compound 18, 1-Cyclopropyl-3-[7-(1-methyl-1H-pyrazol-4-yl)-[1,5]naphthyridin-4-yl]-urea]
 |  | high selectivity | CCCNC(=O)Nc1ccnc2cc(-c3cnn(C)c3)cnc12 [Compound 19, 1-[7-(1-Methyl-1H-pyrazol-4-yl)-[1,5]naphthyridin-4-yl]-3-propyl-urea]
3 | 5 |  | Cn1cc(-c2cnc3ccc(NC(=O)NCc4ccccc4)nc3c2)cn1 [Compound 28, 1-Benzyl-3-[7-(1-methyl-1H-pyrazol-4-yl)-[1,5]naphthyridin-2-yl]-urea]
 |  | high selectivity | O=C(Nc1ccnc2cc(-c3cnn(CCN4CCOCC4)c3)cnc12)NC1CC1 [Compound 38, 1-Cyclopropyl-3-{7-[1-(2-morpholin-4-yl-ethyl)-1H-pyrazol-4-yl]-[1,5]naphthyridin-4-yl}-urea]
